Broadly, the IC50 is the midpoint of a concentration-inhibition curve. A higher IC50 goes with a need for much substance.

The chains behind the UniProt entries cited, without tags or fusion partners. Residues count along the entry.
UniProt P08631, 22-526: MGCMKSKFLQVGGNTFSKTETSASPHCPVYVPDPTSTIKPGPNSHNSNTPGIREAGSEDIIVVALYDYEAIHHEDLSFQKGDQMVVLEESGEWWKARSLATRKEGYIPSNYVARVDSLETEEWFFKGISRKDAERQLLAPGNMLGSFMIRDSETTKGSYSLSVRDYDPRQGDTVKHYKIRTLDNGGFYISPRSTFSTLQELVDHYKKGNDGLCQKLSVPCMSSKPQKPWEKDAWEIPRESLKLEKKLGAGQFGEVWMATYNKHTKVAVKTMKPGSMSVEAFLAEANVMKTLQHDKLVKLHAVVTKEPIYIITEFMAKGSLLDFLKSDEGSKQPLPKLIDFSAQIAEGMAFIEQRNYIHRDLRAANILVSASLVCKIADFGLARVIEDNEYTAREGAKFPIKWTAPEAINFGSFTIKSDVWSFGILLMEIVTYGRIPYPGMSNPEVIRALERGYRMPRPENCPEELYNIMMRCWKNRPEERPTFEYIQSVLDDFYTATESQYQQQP

The text below walks through data of patent publication US10045980B2, “Inhibitor of p38 map kinase” (RESPIVERT LTD, priority 2014, dated 2018).

This experiment has as its target T1, Hck (Homo sapiens, UniProt P08631).
T1 construct: purchased Life Technologies
The experiment in a line: Hck enzyme inhibition (Z-LYTE FRET). In kind it is biochemical. On the procedure: The enzyme inhibitory activities of the compound disclosed herein were determined by FRET using synthetic peptides labelled with both donor and acceptor fluorophores (Z-LYTE, Life Technologies, Paisley, UK).
The inhibitory activities of the compound of the invention against Hck, c-Src and Syk enzymes (Life Technologies) were evaluated in a similar fashion to that described hereinabove. The relevant enzyme (1000 ng/mL, 1400 ng/mL or 2000 ng/mL respectively, 2.5 μL) was incubated with the test compound (either 40 μg/mL, 12 μg/mL, 4 μg/mL, 1.2 μg/mL, 0.4 μg/mL, 0.12 μg/mL, 0.04 μg/mL, 0.012 μg/mL, 0.004 μg/mL or 0.0012 μg/mL, 2.5 μL each) for 2 h at RT. The FRET peptides (8 μM, 2.5 μL), and appropriate ATP solutions (2.5 μL, 800 μM for c-Src, and 60 μM ATP for HCK and Syk) were then added to the enzyme/compound mixtures and incubated for 1 h at RT. Development reagent (protease, 5 μL) was added for 1 h prior to detection in a fluorescence microplate reader (EnVision, Perkin Elmer).
In all cases, the site-specific protease cleaves non-phosphorylated peptide only and eliminates the FRET signal. Phosphorylation levels of each reaction were calculated using the ratio of coumarin emission (donor) over fluorescein emission (acceptor), for which low ratios indicate high phosphorylation and high ratios indicate low phosphorylation levels.

Regarding `COCC(=O)Nc1cc(Oc2ccc(NC(=O)Nc3cc(C(C)(C)C)nn3-c3ccc(C)cc3)c3ccccc23)ccn1` [Reference Compound, N-(4-(4-(3-(3-tert-Butyl-1-p-tolyl-1H-pyrazol-5-yl)ureido)naphthalen-1-yloxy)pyridin-2-yl)-2-methoxyacetamide, reference compound], the IC50 stood at 7 nM.
